Values of other authors as cited in patent US20140288899A1, “C[…] OF BINDING FREE ENERGY, C[…] OF BINDING FREE ENERGY, PROGRAM, SCREENING METHOD OF COMPOUND” (FUJITSU LIMITED, priority 2013, published 2014).

Sequences of proteins named here, by UniProt entry; tags and fusion partners are left off.
UniProt P62942, whole entry: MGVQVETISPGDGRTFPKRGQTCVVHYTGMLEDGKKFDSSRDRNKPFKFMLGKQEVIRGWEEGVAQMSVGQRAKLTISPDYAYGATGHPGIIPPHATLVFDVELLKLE

Tests used:
FK506 BINDING PROTEIN [1] = molecular target: T1, FK506 BINDING PROTEIN (Homo sapiens, UniProt P62942); conditions: experimental value disclosed in Holt et al., J. Am. Chem. Soc. 1993, 115, 9925-9938
FK506 BINDING PROTEIN [2] = molecular target: T1, FK506 BINDING PROTEIN; conditions: calculation value of Wang et al., Biophysical Journal Vol. 91, 2798-2814; restriction with a spring

C=CC[C@@H]1/C=C(\C)C[C@H](C)C[C@H](OC)[C@H]2O[C@@](O)(C(=O)C(=O)N3CCCC[C@H]3C(=O)O[C@H](/C(C)=C/[C@@H]3CC[C@@H](O)[C@H](OC)C3)[C@H](C)[C@@H](O)CC1=O)[C@H](C)C[C@@H]2OC [1fkj, 8-DEETHYL-8-[BUT-3-ENYL]-ASCOMYCIN]
binding free energy, experimental value (FK506 BINDING PROTEIN [1]): -12.7 kcal/mol | binding free energy, calculation result of Comparative Example (FK506 BINDING PROTEIN [2]): -10.1 kcal/mol
